This is an account of results in US7012089B2, “[1,4]Diazocino[7,8,1-hi]indole derivatives as antipsychotic and antiobesity agents” (Wyeth, priority 2002, dated 2006).

The chains behind the UniProt entries cited, without tags or fusion partners. Residues count along the entry.
UniProt P28335, 33-458: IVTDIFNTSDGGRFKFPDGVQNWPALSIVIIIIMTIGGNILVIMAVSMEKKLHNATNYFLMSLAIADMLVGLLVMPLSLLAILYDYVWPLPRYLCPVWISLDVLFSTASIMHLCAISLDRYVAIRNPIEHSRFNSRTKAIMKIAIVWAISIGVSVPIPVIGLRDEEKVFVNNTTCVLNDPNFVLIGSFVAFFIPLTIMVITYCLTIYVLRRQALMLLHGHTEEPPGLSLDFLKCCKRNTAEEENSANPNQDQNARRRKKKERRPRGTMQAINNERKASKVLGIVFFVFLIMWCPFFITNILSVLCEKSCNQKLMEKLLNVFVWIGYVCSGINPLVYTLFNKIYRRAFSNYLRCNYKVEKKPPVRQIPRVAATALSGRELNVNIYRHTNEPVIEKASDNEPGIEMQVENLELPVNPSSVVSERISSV

The target in experiment [1] is human 5-hydroxytryptamine-2C (h-5-HT2C) receptor (Homo sapiens, UniProt P28335). Kind of experiment: [125I]DOI binding to membranes of CHO cells expressing the h-5-HT2C receptor. As to conditions: reference compounds; displacement of [125I]DOI, CHO cell membranes; read-out: Ki (95% confidence interval). (In general: Displacement assays read how much labelled ligand stays bound in the presence of the test substance.)

In experiment [2] the target is human 5-HT2C receptor (Homo sapiens, UniProt P28335). Kind of experiment: 5-HT2C receptor-stimulated calcium mobilization (FLIPR) in CHO cells. The following applies: reference compounds. A general note: A change in cytosolic calcium serves as a functional read-out for many receptors and channels.

Consider “1-(2,5-dimethoxy-4-iodophenyl)isopropylamine [DOI, reference compound]”, for which the Ki in experiment [1] is 6.2 nM. In addition, the EC50 in experiment [2] came to 0.5 nM.

By Ki is commonly meant the equilibrium dissociation constant of an inhibitor or competing ligand from its target. In general, EC50 refers to the concentration that produces a half-maximal response.
